# Test results from paper PMC12010006, “Subnanomolar MAS-related G protein-coupled receptor-X2/B2 antagonists with efficacy in human mast cells and disease models” (Signal Transduction and Targeted Therapy, 2025).
# Biological target: T1, MRGPRX2 (Homo sapiens, UniProt Q96LB1)
# T1 sequence (Q96LB1 1-330): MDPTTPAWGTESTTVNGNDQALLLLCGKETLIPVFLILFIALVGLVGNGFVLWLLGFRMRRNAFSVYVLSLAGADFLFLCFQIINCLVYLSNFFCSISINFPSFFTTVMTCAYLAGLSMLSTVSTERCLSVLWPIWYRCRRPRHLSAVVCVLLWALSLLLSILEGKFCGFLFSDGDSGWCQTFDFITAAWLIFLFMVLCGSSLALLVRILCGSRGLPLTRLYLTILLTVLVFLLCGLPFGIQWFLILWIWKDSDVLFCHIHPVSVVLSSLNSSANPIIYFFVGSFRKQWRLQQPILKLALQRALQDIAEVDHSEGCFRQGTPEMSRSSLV
# Assay: β-arrestin recruitment assay (antagonist mode), β-arrestin-CHO cells recombinantly expressing MRGPRX2
# Assay type: cell-based
# Set-up: expressed in transfected cells
substance,measurement,value
SP: peptide agonist substance P [reference compound],"EC80 of agonist, β-arrestin assay",3000 nM
